The subject of the experiment is SK-LMS-1 xenograft tumors. The format is in vivo, SCID mice. To be noted: Day 9. Details: Estimate of tumor volume difference vs Vehicle: unit not given here. On the procedure:
SK-LMS-1 cell line (HTB-88) was purchased from ATCC. […] Equal number (12) of female and male mice were used in this experiment. […] The intended schedule for drug or vehicle treatment was weekly for 3 doses. However, mice in groups 2 and 5 with DOX at 5 mg/kg after 2 doses lost > 20% BW, indicating severe toxicity. […] One male mouse from group 6 had some health issues early on and was sacrificed on Day 14.
A mixed linear regression model was made with tumor volume as the outcome on day 2, 6, and 9. The model tested for group differences adjusted for time, day 0 volume, and sex. There was a within animal correlation modeled using a random intercept. […] A significant interaction between group and time was found (type III F test p<0.0001) along with significant group differences (the group differences varied depending on day). Sex differences were not significant (type III F test p=0.9124). There was a significant difference in average tumor volume at starting on day 2 between SPESN38-8 and vehicle (p=0.0212). On day 9 all three group comparisons were significant after adjustment for multiplicity (p<0.0001 for all). […] The black color columns are within group at between days, the red columns are between group at each day.
Furthermore, tumor weight, summary of tumor weight in three groups for vehicle, DOX, and SPESN38-8 at their ending days are shown in Table S10. […]

The text below walks through data of paper PMC10712105 (Journal of Translational Medicine, 2023).

Turning to `COc1cccc2c1C(=O)c1c(O)c3c(c(O)c1C2=O)C[C@@](O)(C(=O)CO)C[C@@H]3O[C@H]1C[C@H](N)[C@H](O)[C@H](C)O1` [DOX, doxorubicin], the “slowing of tumor growth rate in TV relative to the control group” value (DOX 5 mg/kg) is listed as ~ 2 X. Under “mixed linear regression model, Tukey-Kramer pairwise test”, the “Estimate of tumor volume difference vs Vehicle” value is -361.96.
